# Experimental melting point values from OPERA 2.9

Source: data files of OPERA 2.9 (Mansouri et al.), github.com/kmansouri/OPERA.

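The numbers are reported measurements, compiled and curated for the OPERA QSAR suite. The files give a single number for a compound and property, which may rest on several reports. Method and conditions are not stated for these values. The measured form (salt, isomer or mixture) is not always the one drawn. Unmarked limits or estimates from the upstream databases cannot be ruled out.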

Melting points are in °C.

compound,melting point (°C)
O=C1N=C(O)C2(CCCCCC2)C(O)=N1,266
Clc1cc(-c2cc(Cl)c(Cl)c(Cl)c2Cl)c(Cl)c(Cl)c1Cl,156
O=c1oc2ccccc2c(O)c1C(CC(O)c1ccc(-c2ccc(Br)cc2)cc1)c1ccccc1 (centres undefined),202
OCc1c(Cl)c(Cl)c(Cl)c(Cl)c1Cl,193
N#CSc1ccc(N)cc1,49.5
Cc1ccc(C(=O)CCl)cc1,55
C[C@@H]1CC[C@@]2(NC1)O[C@H]1C[C@H]3[C@@H]4CC=C5C[C@@H](O)CC[C@]5(C)[C@H]4CC[C@]3(C)[C@H]1[C@@H]2C,201
C[N+](C)(C)CC1COCO1.[I-] (centres undefined),159
CN1CCc2cc3c(cc2C1O)OCO3 (centres undefined),116
Cn1ccc(C(=O)CCl)c1,50
NC(=O)NC(=O)CCl,182
CC12CCC(CC1)C(C)(C)[N+]([O-])=[N+]2[O-],136
CCCCCCCC/C=C\CCCCCCCC(=O)N(C)CC(=O)O.OCCN(CCO)CCO,4.5
CC(=O)NC(=O)CCl,114
CC(=O)c1cc2c(cc1C)C(C)(C)C(C)C2(C)C (centres undefined),58.1
CCCCn1nnnc1CCl,17
C[C@]12CC[C@H]3[C@@H](C=CC4=CC(=O)CC[C@@H]43)[C@@H]1CC[C@@H]2O (stereo in doubt),185.9
Cc1n[nH]c(C)c1NC(=O)CCl,161
O=C(CCl)Nc1ccccc1I,39
NCC(=O)c1ccccc1,20
c1ccc(CP(c2ccccc2)c2ccccc2)cc1,74.5
CNC(=O)Oc1cccc2sccc12,128
O=C1NC(=O)C(O)(O)C(=O)N1,240
Clc1cc(Cl)c(-c2c(Cl)cc(Cl)cc2Cl)c(Cl)c1,113
O=P(Oc1ccccc1)(Oc1ccccc1)Oc1ccc(-c2ccc(OP(=O)(Oc3ccccc3)Oc3ccccc3)cc2)cc1,-29.77
CCC12COCN1COC2,-0.1
CCCCCCCCCCCCCOP(OCCCCCCCCCCCCC)Oc1cc(C)c(C(CCC)c2cc(C(C)(C)C)c(OP(OCCCCCCCCCCCCC)OCCCCCCCCCCCCC)cc2C)cc1C(C)(C)C,-28.68
CC(=O)O[C@@H]1[C@@H](O)C2OC3C=C(C)C(=O)C(O)[C@@]3(CO)[C@]1(C)[C@]21CO1 (stereo not given in full),91.5
Clc1cccc(-c2cc(Cl)ccc2Cl)c1,40
Brc1cc(Br)c(Oc2ccc(Br)c(Br)c2)c(Br)c1,86.5
S=P(Oc1ccccc1)(Oc1ccccc1)Oc1ccccc1,53.1
Nc1ccc(CN2CCN(Cc3ccccc3)CC2)cc1,97
CC(=O)Nc1nc(CCl)cs1,160
COc1cc2c(c3oc(=O)c4c(c13)CCOC4=O)[C@@H]1CCO[C@@H]1O2,238.6
Br.CCCNC1CCc2c(O)cccc2C1 (centres undefined),256.5
NC(=O)C[S-].NC(=O)C[S-].NC(=O)C[S-].[Sb+3],140
C[N+]1([O-])CCCC1c1cccnc1 (centres undefined),-79
CNC(=O)Oc1cc(C)c(C)cc1Cl,124
CC[C@@H](C(=O)O)[C@@H]1O[C@@H]([C@@H](C)[C@H](O)[C@H](C)C(=O)[C@H](CC)[C@H]2O[C@]3(C=C[C@@H](O)[C@]4(CC[C@@](C)([C@H]5CC[C@](O)(CC)[C@H](C)O5)O4)O3)[C@H](C)C[C@@H]2C)[C@@H](C)C[C@@H]1C,98
Clc1ccc(Cl)c(C(Cl)(Cl)Cl)n1,47.5